Here are results for one compound from patent publication US7947275B2 (Signe Biopharma, Inc., priority 2000, dated 2011).

Amino acid sequences for entries named in this document (tags omitted).
UniProt P06211, whole entry: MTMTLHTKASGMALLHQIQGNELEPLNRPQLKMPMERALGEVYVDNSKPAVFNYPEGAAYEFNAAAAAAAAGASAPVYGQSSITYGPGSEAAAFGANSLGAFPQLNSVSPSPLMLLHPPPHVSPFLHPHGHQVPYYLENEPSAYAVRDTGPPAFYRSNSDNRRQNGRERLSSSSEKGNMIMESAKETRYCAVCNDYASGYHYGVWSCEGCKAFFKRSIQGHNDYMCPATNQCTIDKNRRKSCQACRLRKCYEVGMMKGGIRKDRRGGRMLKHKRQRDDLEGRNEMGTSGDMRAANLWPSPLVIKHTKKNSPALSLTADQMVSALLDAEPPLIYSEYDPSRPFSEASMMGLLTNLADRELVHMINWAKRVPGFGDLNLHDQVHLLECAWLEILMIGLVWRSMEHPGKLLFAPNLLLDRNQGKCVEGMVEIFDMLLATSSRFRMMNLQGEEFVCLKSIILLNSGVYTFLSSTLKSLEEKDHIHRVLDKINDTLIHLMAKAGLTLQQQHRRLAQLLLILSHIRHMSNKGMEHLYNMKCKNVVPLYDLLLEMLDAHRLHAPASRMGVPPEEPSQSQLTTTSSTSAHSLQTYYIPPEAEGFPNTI

In this test the target is estrogen receptors of MTW9/PL2 cells (Rattus norvegicus, UniProt P06211). Kind of test: ^3H-E2 binding to MTW9/PL2 cells. Conditions: 5 nM ^3H-E2, 37° C., 1000-fold excess of unlabeled steroid.

For `C[C@]12CC[C@H]3[C@@H](CCC4=CC(=O)CC[C@@]43C)[C@@H]1CC[C@@H]2O` [T, Testosterone], the “reduction of ^3H-E2 total binding by unlabeled steroid” value is recorded as 15%.
